From patent US12576087B2, “Aryloxypiperidine pyrazole compounds as indoleamine 2,3-dioxygenase inhibitors” (Merck Sharp & Dohme LLC, priority 2018, dated 2026)

Chains of the proteins cited; added tags and fusions are not shown.
UniProt P14902, whole entry: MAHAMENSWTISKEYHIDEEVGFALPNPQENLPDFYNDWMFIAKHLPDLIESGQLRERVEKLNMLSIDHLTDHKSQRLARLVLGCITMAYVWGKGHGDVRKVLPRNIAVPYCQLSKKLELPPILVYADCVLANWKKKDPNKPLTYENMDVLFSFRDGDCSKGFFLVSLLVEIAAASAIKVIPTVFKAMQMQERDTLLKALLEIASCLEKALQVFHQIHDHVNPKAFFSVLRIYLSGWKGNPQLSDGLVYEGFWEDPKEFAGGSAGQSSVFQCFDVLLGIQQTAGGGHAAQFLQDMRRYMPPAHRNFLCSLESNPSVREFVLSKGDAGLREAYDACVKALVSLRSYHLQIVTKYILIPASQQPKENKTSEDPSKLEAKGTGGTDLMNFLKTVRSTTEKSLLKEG

Molecular target: IDO1 (Homo sapiens, UniProt P14902)
Test: IDO1 Cellular Assay in HeLa Cells Stimulated with IFNγ
Format: cell-based
Conditions: HeLa cells stimulated with IFNγ 100 ng/mL, about 48 hours

EC50 [nM]	SMILES
9.5	CC(=O)NC1CCN(C(=O)c2nn(CC(=O)N3CCC(Oc4ncccc4C)CC3)c3c2CCCC3)CC1 [Example 180, N-(1-(1-(2-(4-((3-Methylpyridin-2-yl)oxy)piperidin-1-yl)-2-oxoethyl)-4,5,6,7-tetrahydro-1H-indazole-3-carbonyl)piperidin-4-yl)acetamide]
8.19	Cc1cccnc1OC1CCN(C(=O)Cn2nc(C(=O)N3CCC(O)CC3)c3c2CCCC3)CC1 [Example 181, 2-(3-(4-Hydroxypiperidine-1-carbonyl)-4,5,6,7-tetrahydro-1H-indazol-1-yl)-1-(4-((3-methylpyridin-2-yl)oxy)piperidin-1-yl)ethanone]
